Experiments:
Bile salt export pump = Bile salt export pump (Homo sapiens, UniProt O95342)
[1] = biological target: ATP-binding cassette sub-family C member 2 (Homo sapiens, UniProt Q92887)
[2] = biological target: ATP-binding cassette sub-family C member 4 (Homo sapiens, UniProt O15439)
[3] = biological target: ATP-binding cassette sub-family C member 3 (Homo sapiens, UniProt O15438)

The chains behind the UniProt entries cited, without tags or fusion partners. Where a name states a change or a piece, a line headed by the entry shows the natural chain unless it says otherwise.
UniProt O95342, whole entry: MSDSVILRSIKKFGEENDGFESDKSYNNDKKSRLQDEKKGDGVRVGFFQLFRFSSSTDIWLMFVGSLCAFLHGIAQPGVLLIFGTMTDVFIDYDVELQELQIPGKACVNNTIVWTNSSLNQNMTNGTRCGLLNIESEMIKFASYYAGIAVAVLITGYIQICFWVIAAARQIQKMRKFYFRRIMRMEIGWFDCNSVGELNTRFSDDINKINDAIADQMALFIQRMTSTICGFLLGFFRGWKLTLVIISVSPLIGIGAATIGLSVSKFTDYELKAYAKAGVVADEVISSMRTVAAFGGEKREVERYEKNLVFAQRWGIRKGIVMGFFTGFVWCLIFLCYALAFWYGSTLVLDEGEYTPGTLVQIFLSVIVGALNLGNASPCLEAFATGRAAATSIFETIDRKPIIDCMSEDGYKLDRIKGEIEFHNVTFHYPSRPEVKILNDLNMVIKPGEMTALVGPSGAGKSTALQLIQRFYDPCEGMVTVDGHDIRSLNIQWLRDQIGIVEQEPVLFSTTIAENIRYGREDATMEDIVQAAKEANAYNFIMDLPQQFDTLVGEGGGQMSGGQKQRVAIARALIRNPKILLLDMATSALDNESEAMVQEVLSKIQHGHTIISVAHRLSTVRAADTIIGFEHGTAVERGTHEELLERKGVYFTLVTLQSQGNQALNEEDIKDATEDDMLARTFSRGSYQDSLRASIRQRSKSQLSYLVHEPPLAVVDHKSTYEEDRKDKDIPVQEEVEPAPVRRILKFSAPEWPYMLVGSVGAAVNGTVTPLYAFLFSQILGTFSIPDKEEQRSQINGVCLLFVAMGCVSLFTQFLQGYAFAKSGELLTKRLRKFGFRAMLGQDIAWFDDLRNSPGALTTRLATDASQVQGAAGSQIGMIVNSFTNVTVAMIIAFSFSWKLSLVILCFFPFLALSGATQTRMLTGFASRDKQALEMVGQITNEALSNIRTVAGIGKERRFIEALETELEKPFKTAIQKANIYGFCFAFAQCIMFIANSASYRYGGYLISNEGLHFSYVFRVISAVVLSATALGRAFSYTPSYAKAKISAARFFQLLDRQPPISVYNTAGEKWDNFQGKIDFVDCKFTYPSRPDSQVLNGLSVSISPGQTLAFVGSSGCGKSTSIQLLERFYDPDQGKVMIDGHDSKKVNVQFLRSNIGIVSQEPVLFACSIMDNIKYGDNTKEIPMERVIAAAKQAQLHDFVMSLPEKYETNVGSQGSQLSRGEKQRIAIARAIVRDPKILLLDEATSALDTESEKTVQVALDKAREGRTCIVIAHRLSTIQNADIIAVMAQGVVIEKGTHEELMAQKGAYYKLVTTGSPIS
UniProt Q92887: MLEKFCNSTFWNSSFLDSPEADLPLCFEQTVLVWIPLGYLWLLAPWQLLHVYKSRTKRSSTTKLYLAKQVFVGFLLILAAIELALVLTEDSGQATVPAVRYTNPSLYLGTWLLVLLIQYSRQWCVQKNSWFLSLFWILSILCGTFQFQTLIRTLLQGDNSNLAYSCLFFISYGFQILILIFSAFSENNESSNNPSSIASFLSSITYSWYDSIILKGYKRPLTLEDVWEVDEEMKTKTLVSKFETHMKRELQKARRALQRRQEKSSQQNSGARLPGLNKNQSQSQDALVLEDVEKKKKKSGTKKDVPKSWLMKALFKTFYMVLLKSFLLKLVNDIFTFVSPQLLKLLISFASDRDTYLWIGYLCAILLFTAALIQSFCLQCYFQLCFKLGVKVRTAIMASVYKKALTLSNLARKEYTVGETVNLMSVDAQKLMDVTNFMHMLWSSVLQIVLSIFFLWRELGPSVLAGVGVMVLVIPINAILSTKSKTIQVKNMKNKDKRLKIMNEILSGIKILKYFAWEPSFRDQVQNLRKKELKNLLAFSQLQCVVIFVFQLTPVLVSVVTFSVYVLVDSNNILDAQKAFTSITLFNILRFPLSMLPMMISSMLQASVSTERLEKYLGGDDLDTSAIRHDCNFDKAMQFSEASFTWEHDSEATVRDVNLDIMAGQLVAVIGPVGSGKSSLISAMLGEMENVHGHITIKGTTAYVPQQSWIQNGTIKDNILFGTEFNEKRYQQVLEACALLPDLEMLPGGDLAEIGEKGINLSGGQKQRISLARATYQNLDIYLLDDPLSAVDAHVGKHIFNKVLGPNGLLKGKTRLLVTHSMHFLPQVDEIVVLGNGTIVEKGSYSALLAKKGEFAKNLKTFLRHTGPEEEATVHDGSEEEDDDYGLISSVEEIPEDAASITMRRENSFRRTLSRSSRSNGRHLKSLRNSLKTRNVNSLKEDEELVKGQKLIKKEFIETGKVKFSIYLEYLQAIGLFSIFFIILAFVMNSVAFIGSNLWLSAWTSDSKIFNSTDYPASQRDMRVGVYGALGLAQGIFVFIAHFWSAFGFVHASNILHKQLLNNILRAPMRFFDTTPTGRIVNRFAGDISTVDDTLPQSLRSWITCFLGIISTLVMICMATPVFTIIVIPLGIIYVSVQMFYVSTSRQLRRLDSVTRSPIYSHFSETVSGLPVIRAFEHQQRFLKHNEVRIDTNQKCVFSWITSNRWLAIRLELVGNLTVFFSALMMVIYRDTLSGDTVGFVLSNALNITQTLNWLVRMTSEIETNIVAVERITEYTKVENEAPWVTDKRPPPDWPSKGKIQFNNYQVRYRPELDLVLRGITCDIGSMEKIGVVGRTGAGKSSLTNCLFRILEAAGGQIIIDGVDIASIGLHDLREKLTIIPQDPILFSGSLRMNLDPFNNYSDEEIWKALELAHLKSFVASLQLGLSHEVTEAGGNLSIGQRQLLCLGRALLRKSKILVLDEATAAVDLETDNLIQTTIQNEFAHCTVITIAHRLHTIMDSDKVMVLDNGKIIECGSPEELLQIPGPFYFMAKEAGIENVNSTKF
UniProt O15439: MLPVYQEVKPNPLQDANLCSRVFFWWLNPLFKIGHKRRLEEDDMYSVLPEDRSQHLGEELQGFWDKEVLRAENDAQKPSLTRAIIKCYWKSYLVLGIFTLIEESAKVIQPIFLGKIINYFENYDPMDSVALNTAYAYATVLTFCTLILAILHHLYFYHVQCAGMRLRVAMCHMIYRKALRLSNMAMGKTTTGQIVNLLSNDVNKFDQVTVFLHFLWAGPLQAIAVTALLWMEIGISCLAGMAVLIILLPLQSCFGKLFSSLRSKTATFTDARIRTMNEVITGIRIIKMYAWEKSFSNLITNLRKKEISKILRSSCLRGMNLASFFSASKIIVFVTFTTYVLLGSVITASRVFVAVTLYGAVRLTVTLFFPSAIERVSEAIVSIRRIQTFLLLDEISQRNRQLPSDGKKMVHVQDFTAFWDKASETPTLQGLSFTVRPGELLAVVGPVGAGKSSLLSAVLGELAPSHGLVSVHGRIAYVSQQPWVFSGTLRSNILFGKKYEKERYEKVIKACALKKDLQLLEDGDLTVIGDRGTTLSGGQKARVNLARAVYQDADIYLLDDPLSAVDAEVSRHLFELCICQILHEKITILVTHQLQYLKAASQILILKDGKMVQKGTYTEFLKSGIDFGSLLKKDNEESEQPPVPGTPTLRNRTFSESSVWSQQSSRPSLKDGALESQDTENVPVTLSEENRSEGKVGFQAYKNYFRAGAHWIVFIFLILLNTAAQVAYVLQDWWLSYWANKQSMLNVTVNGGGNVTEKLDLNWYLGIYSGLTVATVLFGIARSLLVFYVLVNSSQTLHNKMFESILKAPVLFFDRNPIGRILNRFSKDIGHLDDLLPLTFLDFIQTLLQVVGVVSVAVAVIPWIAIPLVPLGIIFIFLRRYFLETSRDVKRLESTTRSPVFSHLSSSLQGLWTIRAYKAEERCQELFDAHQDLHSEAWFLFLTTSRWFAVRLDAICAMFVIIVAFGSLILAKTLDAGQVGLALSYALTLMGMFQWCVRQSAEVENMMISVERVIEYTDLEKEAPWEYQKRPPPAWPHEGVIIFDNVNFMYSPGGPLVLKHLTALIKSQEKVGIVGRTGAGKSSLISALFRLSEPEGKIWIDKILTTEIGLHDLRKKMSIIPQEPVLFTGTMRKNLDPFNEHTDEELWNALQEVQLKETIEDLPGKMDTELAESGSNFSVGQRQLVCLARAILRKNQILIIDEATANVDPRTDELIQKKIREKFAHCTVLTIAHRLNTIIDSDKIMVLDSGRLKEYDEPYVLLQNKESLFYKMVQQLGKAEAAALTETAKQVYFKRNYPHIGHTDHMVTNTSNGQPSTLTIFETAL
UniProt O15438: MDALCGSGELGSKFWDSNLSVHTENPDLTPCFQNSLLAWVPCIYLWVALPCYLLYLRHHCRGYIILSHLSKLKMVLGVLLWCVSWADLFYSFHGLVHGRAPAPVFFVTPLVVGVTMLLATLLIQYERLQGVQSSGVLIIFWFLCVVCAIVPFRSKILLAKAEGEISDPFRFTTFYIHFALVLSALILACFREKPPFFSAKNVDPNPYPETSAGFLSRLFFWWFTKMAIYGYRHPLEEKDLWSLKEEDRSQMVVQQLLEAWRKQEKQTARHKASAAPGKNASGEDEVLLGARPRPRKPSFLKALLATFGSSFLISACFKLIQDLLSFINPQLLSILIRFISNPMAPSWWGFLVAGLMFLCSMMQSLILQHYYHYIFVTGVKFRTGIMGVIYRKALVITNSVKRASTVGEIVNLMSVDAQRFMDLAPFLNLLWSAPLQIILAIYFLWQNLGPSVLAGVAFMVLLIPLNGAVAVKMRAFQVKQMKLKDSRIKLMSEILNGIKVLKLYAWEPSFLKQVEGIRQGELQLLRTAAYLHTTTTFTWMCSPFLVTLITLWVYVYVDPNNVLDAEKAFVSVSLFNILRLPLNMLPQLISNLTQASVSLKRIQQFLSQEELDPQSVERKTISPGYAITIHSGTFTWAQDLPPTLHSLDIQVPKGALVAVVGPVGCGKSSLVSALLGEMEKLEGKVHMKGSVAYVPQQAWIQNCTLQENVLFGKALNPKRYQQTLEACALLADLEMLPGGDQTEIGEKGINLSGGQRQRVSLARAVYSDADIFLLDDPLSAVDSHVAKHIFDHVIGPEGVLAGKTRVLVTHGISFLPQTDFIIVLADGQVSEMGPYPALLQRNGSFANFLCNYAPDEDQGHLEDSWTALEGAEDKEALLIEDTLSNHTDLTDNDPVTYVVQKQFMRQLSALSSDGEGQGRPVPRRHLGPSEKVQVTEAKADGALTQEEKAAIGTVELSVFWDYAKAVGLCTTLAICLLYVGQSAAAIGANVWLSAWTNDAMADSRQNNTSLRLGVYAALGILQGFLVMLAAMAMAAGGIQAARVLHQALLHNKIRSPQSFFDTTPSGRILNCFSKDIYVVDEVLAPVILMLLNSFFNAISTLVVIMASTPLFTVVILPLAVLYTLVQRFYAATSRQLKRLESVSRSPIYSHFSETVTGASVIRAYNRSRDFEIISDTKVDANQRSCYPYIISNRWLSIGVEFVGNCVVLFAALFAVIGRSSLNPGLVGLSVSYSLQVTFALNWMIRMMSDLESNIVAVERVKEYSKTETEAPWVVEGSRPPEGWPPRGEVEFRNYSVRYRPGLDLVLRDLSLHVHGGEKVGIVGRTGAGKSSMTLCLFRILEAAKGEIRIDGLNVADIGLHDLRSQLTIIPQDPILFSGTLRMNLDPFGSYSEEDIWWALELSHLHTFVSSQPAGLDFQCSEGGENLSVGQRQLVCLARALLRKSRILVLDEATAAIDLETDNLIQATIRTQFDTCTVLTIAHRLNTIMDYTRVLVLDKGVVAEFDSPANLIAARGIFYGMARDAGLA

| Structure (SMILES) | IC50 (Bile salt export pump) [µM] | IC50 [1] [µM] | IC50 [2] [µM] | IC50 [3] [µM] |
| --- | --- | --- | --- | --- |
| Cc1cnc(C(=O)NCCc2ccc(S(=O)(=O)NC(=O)NC3CCCCC3)cc2)cn1 [Glucotrol xl] | > 133 | > 133 | > 133 | > 133 |
| CC(C)c1c(C(=O)Nc2ccccc2)c(-c2ccccc2)c(-c2ccc(F)cc2)n1CC[C@@H](O)C[C@@H](O)CC(=O)O [calcium bis{(3R,5R)-7-[3-(anilinocarbonyl)-5-(4-fluorophenyl)-2-isopropyl-4-phenyl-1H-pyrrol-1-yl]-3,5-dihydroxyheptanoate}] |  | > 133 |  |  |

Source: BindingDB's records for doi:10.1093/toxsci/kft176 (Amgen, 2013)
